{"source": "paper PMC6586034", "about": "(Clinical Pharmacology in Drug Development, 2018)", "type": "in vivo, human", "conditions": "once-daily verinurad 10 mg or 2.5 mg with febuxostat 40 mg or 80 mg", "note": "Entries after “also recorded” stand apart in the source; their conditions may differ.", "data": [{"smiles": "Cc1nc(-c2ccc(OCC(C)C)c(C#N)c2)sc1C(=O)O", "note": "[febuxostat, Febuxostat, reference compound]", "values": [{"measurement": "Effect of verinurad on febuxostat PK / systemic exposure", "value": "no effect; also recorded: unaffected; also recorded: did not affect"}]}]}
